In US7067251B2 (priority 2000, dated 2006):

System: C3H10T½ cells
Type: cell-based, murine

BMP-2
Type X collagen expression: induces differentiation into mature chondrocytes and expression of type X collagen
Type X collagen synthesis: fails to induce synthesis of type X collagen
